For data set [1] the following is noted: concentrations higher than 50 μM.
Data set [2] concerns carboxypeptidase B. The data set is described as follows: pI shift assay (isoelectric focusing after carboxypeptidase B) for intact carboxyl terminal glycine dipeptide. The source says: Previous work has shown that the carboxyl terminal glycine dipeptide of ubiquitin is acutely sensitive to cleavage by trypsin-like activities (Haas, A. L., et al., J. Biol. Chem. 260:4694-4703, 1985; Wilkinson, K. D. and Audhya, T. K., J. Biol. Chem. 256:9235-9241, 1981). […] The specificity of carboxypeptidase B for lysine and arginine precludes a similar pI shift for intact ubiquitin in which R74 is masked by the glycine dipeptide (Haas, A. L., et al., supra, 1985).

Data set [3] concerns rabbit reticulocyte ubiquitin activating enzyme (E1). It is filed as biochemical. As to the method:
The incorporation of ^32 PPi into ATP was measured by adsorbing the resulting ^32 P-labeled ATP onto charcoal and counting the bound radioactivity by Cerenkov radiation (Haas, A. L. and Rose, I. A., supra, 1982). Nonspecifically-bound ^32 PPi was corrected by subtracting radioactivity in control incubations conducted in the absence of added E1 (Haas, A. L. and Rose, I. A., supra, 1982).
Since these measurements were conducted in the absence of added AMP, the kinetic constants reflect step 3 of the E1 reaction involving formation of the final ternary complex (Haas, A. L. and Rose, I. A. J. Biol. Chem., .supra, 1982).

“And” between values parts separate entries of the source, which are not always exact repeats. Equal values may be shown once.

The results in this text go back to patent US5714347A (priority 1995, dated 1998).

The kcat is the number of substrate molecules converted per active site and unit of time at saturation. On to ubiquitin cross-reactive protein [UCRP], for which the solubility result in data set [1] is on record as “Insolubility”. Further, the pI in data set [2] (before carboxypeptidase treatment) was found to be 6.7. Besides, the “pI following successive incubation with carboxypeptidase A then carboxypeptidase B” value in data set [2] (control experiment) was found to be 5.4. Moreover, the “pI shift upon incubation with carboxypeptidase B” value in data set [2] (isoelectric focusing) was “failed to show a pI shift”. In addition, in data set [3], the kcat is 0.026 s^-1 and 0.026; the “kcat fold lower than ubiquitin” value is listed as 370 fold.
